Results on 1 substance are retold here after US7629348B2, “Heterocyclic amide and imine derivatives, processes for their preparation, compositions comprising them and their use as pesticides” (Merial Limited, priority 2001, dated 2009).

Assay [1] has as its system black bean aphids (Aphis fabae). The experiment in a line: Root-systemic test: solution pipetted into bottle with field bean (Vicia faba), aphid mortality. As to conditions: 4 ml aqueous solution pipetted into bottle; after 3 and 6 days of storage; concentration 500 ppm or less.
For assay [2] the test system is unchanged. Put plainly: Dip test: field bean plants (Vicia faba) and aphids dipped into solution of preparation, aphid mortality. As to conditions: plants and aphids dipped 5 seconds; after 3 and 6 days of storage; concentration 500 ppm or less.

Turning to “N-butyl-N-isopropylthio-(4-trifluoromethyl)nicotinamide [Example C]”, the “root-systemic effect of the preparation as aphid mortality” value in assay [1] is on record as “active”. Moreover, in assay [2], the “mortality of the preparation on the aphids” value is on record as “active”.
